Reference: patent publication US7390813B1, “Pyridylpiperazines and aminonicotinamides and their use as therapeutic agents” (Xenon Pharmaceuticals Inc., priority 2001, dated 2008)

Amino acid sequences for entries named in this document (tags omitted).
UniProt P13516, whole entry: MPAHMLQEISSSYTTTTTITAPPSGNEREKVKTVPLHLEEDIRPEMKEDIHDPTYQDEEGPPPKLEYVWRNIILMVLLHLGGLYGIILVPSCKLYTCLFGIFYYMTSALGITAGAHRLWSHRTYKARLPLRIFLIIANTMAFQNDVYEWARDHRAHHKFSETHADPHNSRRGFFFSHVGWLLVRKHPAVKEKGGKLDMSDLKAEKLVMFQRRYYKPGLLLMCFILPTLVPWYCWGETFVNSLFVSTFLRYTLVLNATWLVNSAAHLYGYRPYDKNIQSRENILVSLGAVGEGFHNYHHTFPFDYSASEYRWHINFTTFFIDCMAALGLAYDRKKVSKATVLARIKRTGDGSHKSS

Target: stearoyl-CoA desaturase (SCD) (Mus musculus, UniProt P13516)
Assay: SCD mouse liver microsome assay (tritiated stearoyl-CoA desaturation)
Conditions: for % Remaining SCD activity compared to DMSO control, average: mouse liver microsomes 100 μg, 15 min RT preincubation, 15 min RT desaturation

O=C(NCCc1ccccc1)c1ccc(N2CCN(C(=O)c3ccccc3C(F)(F)F)CC2)nc1
% Remaining SCD activity compared to DMSO control, average (0.1 uM test compound): 22.81% | % Remaining SCD activity compared to DMSO control, average (1 uM test compound): 2.50% | % Remaining SCD activity compared to DMSO control, average (10 uM test compound): 0.69% | % Activity 0.1 μM (Table 5, % remaining SCD activity at 0.1 μM, mouse microsome assay): 23% | % Activity 1 μM (Table 5, % remaining SCD activity at 1 μM, mouse microsome assay): 2.5% | % Activity 10 μM (Table 5, % remaining SCD activity at 10 μM, mouse microsome assay): 0.7% | IC50 (read-out: IC50 value, stated in summary text): 48 nM
